Data as given in patent US11458122B2, “Methods for treating diseases and nerve injuries” (CHILDREN'S HOSPITAL MEDICAL CENTER, priority 2017, dated 2022).

Details: PDA106 100 mg/kg, RGFP966 10 mg/kg

Question: For `Cc1ccc(NC(=O)CCCCCC(=O)Nc2ccccc2N)cc1` [PDA106, N1-(2-Aminophenyl)-N7-(4-methylphenyl)-heptanediamide], which “tolerability / side effects in mice” value is on record?
Answer: The value was “without adverse effects on mice”.
